Screens deposited in PubChem by National Center for Advancing Translational Sciences (NCATS).
A549 viability – counter-screen for Nrf2 inhibitors: cytotoxicity in A549 cells; 390,000 tested, 0.16% active; A549 ARE-Fluc cells, CellTiter-Fluor viability, 18-24 h; AID 504648; Potency, µM (highest dose often 46 µM), actives largely listed as inhibitors
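A549 ARE_Fluc cells in 5% FBS OPTI-MEM were exposed to compounds in concentration-response for 18-24 h at 37 deg C. Viability was read by CellTiter-Fluor fluorescence (Ex 405/Em 525) after 30 min, before the luciferase read.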
Nrf2 activator – activators of Nrf2 (ARE) signaling; AREc32 ARE-luciferase reporter (MCF7-derived line), luminescence, 24 h; Potency, µM (doses to about 46.1 µM), most hits filed as activators; 410,000 tested, 0.31% active; AID 624171; note: nearly all actives have a fitted effect of over 65% in size
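ARE-driven firefly luciferase activity in AREc32 cells measured after a 24 hr compound exposure at 37 deg C, using Steady-Glo reagent and a 30 min room-temperature hold.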
p53 reactivation – mutant p53 re-activation in reporter cells; 320,000 tested, 0.063% active; Potency, µM (titrated, usually from 92.2 µM), most hits filed as activators; H1299 p53-A138V BP100-luciferase reporter, luminescence, 24 h; note: nearly all actives have a fitted effect of over 45% in size
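p53-null H1299 cells stably carrying temperature-sensitive p53-A138V and a BP100-luciferase reporter were pinned with compounds (4-point, 1:5 series) and held 24 hrs at 37 deg C. Luminescence was read 10 min after detection reagent.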
Nrf2 inh – blocks Nrf2 signaling. Potency, µM (titrated, usually from 46 µM), most hits filed as inhibitors. AID 504444. A549 ARE-Fluc reporter, luciferase luminescence, 18-24 h. 360,000 tested, 2.1% active; note: nearly all actives have a fitted effect of over 60% in size
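Two sequential reads on A549 ARE_Fluc cells exposed to compound for 18-24 h: a CellTiter-Fluor fluorescence read for viability, then a luciferase luminescence read for Nrf2/ARE activity.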
miR-21 FLuc – miR-21 reporter, rising signal; Potency, µM (titrated, usually from 38.3 µM); AID 2288; 340,000 tested, under 10 active; HeLa miR-21 FLuc reporter, luciferase, 48 h; active = well fitted rising curve with a large enough effect; inconclusive = small, poorly fitted or top-dose-only effect; inactive = no such curve, though single readings can be large or run the other way;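 note: miR-21 action dims this reporter so a rising signal means less miR-21 action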
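Luminescence from a firefly luciferase reporter carrying a miR-21 binding site downstream, stably expressed under a CMV promoter in HeLa cells that make miR-21 endogenously, reports miRNA modulation after 48 h compound exposure up to approximately 40uM final.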
ClpP mod – qHTS Assay for Activators of ClpP. AID 651965, 2013. purified B. subtilis ClpP, FRET peptide cleavage, 20 min. ATP-dependent Clp protease proteolytic subunit (Bacillus subtilis (strain 168)), P80244. 340,000 tested, 1.9% active. Potency, µM (top dose mostly 57.5 µM); active = well fitted falling curve with a large enough effect; inconclusive = small, poorly fitted or top-dose-only effect; inactive = no such curve, though single readings can be large or run the other way; note: the source files actives as falling curves though it sought activators and does not explain the sign; nearly all actives have a fitted effect of over 65% in size
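FRET quenching reversal measured ClpP activation: 10 microg/mL B. subtilis ClpP at pH 8 with the FRET-FV decapeptide, read at 430 nm after 320 nm excitation. The 20-min minus 0-min signal was scaled between DMSO/no-enzyme wells and ADEP (5.8 microM final).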
Of the large screens only hits and unclear results are named; the others gave an inactive call; ! = not active in a repeat. Shown are actives, neighbours in structure and some others; about 3.7% of the full set was active somewhere. Unless noted, calls come from the whole dose curve; as a rule, active = well fitted curve in the direction sought with a large enough effect; inconclusive = small, poorly fitted or top-dose-only effect, or another doubt; inactive = no such curve, though single readings can be large; an effect the other way counts as inactive or inconclusive.

CC(=O)OC1(C(C)=O)CCC2C3CC(C(F)(F)F)C4=CC(=O)CCC4(C)C3CCC21C (stereo not given)	Nrf2 activator 7.1µM (no result: p53 reactivation, miR-21 FLuc, ClpP mod)
CC(=O)C12CCCCC1CC1[C@@H]3CC(C)C4=CC(=O)CC[C@]4(C)C3CC[C@@]12C (stereo not given in full)	Nrf2 inh inconclusive (no result: ClpP mod)
CC1CC2C3CCC4=CC(=O)CCC4(C)C3CCC2(C)C1(O)C(=O)CO (stereo not given)	Nrf2 inh 0.65µM (no result: p53 reactivation, miR-21 FLuc, ClpP mod)
CC12CCC(=O)C=C1CCC1C2CCC2(C)C1CCC2(O)C(=O)CO (stereo not given)	Nrf2 inh inconclusive (no result: p53 reactivation, miR-21 FLuc)
CCC(=O)OC1(C(C)=O)CCC2C3CCC4=CC(=O)CCC4(C)C3CCC21C (stereo not given)	Nrf2 inh 1.2µM (no result: p53 reactivation, miR-21 FLuc, ClpP mod)
CC(=O)O[C@]1(C(C)=O)CC[C@H]2[C@@H]3C[C@H](C)C4=CC(=O)CC[C@]4(C)[C@H]3CC[C@@]21C	Nrf2 inh 0.26µM
O=C(NC1CC(=O)N(c2ccc(Cl)cc2)C1)C1CCCCC1 (stereo not given)	none (no result: p53 reactivation, Nrf2 inh)
COc1cc(F)c(S(=O)(=O)N2CCCN(S(=O)(=O)c3ccc4c(c3)OCCO4)CC2)c(F)c1	Nrf2 inh inconclusive (no result: Nrf2 activator, p53 reactivation, miR-21 FLuc, ClpP mod)
CN(C)c1ccc(C(=O)c2ccccc2)cc1	Nrf2 inh inconclusive
C=C(c1ccccc1)c1ccc(N(C)C)cc1	Nrf2 inh 16µM (no result: ClpP mod)
CC(C)Cn1c(/C=C/c2ccco2)nc2ccccc21	Nrf2 activator 13µM, p53 reactivation inconclusive
CC(C)Cn1c(S(=O)(=O)O)nc2ccccc21	none (no result: ClpP mod)
CCCn1c(/C=C/c2ccccc2)nc2ccccc21	Nrf2 inh inconclusive, ClpP mod 13µM!
Cc1ccc(NC(=O)Cn2c(/C=C/c3ccccc3)nc3ccccc32)cc1C	ClpP mod 28µM
CC(C)c1ccccc1NC(=O)Cn1c(/C=C/c2ccccc2)nc2ccccc21	none (no result: ClpP mod)
COc1ccc(C2Nc3ccccc3C(=O)N2Cc2ccccc2)cc1COc1cccc(C(F)(F)F)c1 (stereo not given)	none (no result: Nrf2 activator, p53 reactivation, miR-21 FLuc, ClpP mod)
COc1ccc(Cn2ccc3nc(C)c(C(=O)Nc4ccc(F)cc4)cc3c2=O)cc1	none (no result: p53 reactivation)
COc1ccc(Cn2ccc3nc(C)c(C(=O)Nc4ccc(OC(F)(F)F)cc4)cc3c2=O)cc1	Nrf2 inh inconclusive, ClpP mod 25µM (no result: p53 reactivation)
Nc1nc(-c2ccccc2)c(N=Nc2ccccc2Cl)s1	A549 viability inconclusive
Nc1nc(-c2ccccc2)c(N=Nc2cccc3ccccc23)s1	A549 viability 16µM
CCOc1ccc(S(=O)(=O)NCC2CCCO2)c2ccccc12 (stereo not given)	none (no result: p53 reactivation)
CCOc1ccc(S(=O)(=O)NCC2CCCO2)c2cccnc12 (stereo not given)	ClpP mod 40µM
CCOc1ccc(S(=O)(=O)NCc2ccc(Cl)cc2)c2cccnc12	ClpP mod 16µM
Cc1cc(Br)c(Oc2cc(NN3CCCCC3)c([N+](=O)[O-])cc2[N+](=O)[O-])c(Br)c1	none (no result: p53 reactivation, miR-21 FLuc)
Cc1ccc(NC(=O)O/N=C/c2c(C)nn(C(C)(C)C)c2C)cc1Cl	Nrf2 inh 0.33µM, miR-21 FLuc inconclusive (no result: ClpP mod)
CC(C)CNc1ncnc2[nH]ncc12	none (no result: p53 reactivation, miR-21 FLuc, ClpP mod)
O=C(/C=C/c1ccco1)NCC(=O)N/N=C/c1ccccc1[N+](=O)[O-]	A549 viability inconclusive, Nrf2 activator 11µM
O=S(=O)(NCC(Nc1ccc(Cl)cc1)c1ccccc1)c1ccc(Cl)cc1 (stereo not given)	A549 viability inconclusive, Nrf2 inh 21µM
Cc1ccc(S(=O)(=O)NCC(Nc2cccc(Cl)c2)c2ccccc2)cc1 (stereo not given)	Nrf2 inh inconclusive, miR-21 FLuc inconclusive (no result: p53 reactivation)
CC(C)CCCCCCCCCCCCC(=O)NCC(=O)NC1C(C)OC(Nc2ncnc3nc[nH]c23)C(O)C1O (stereo not given)	A549 viability inconclusive, Nrf2 inh 0.037µM (no result: p53 reactivation, miR-21 FLuc)
CC(C)CNc1ncnc2nc[nH]c12	none (no result: A549 viability, Nrf2 activator, p53 reactivation, Nrf2 inh, miR-21 FLuc)
Cc1cc2c(s1)c1cnn(Cc3ccc(-c4ccccc4)cc3)c(=O)c1n2C	none (no result: Nrf2 activator, p53 reactivation, miR-21 FLuc, ClpP mod)
CS(=O)(=O)c1ncc(Cl)c(C(=O)N(Cc2ccc(Cl)cc2)Cc2ccco2)n1	A549 viability inconclusive, Nrf2 inh 23µM, miR-21 FLuc inconclusive (no result: p53 reactivation)
O=C(Nc1nc2ccc(Cl)cc2s1)c1cccc(N2C(=O)CCC2=O)c1	p53 reactivation inconclusive, Nrf2 inh inconclusive, ClpP mod 35µM (no result: miR-21 FLuc)
Cc1cc2c(cc3c(SCc4ccc(Cl)cc4)nncn32)o1	none (no result: p53 reactivation)
Cc1ccc(NC(=O)COCc2cc(-c3cccs3)on2)cc1Cl	Nrf2 activator 7.1µM, Nrf2 inh inconclusive (no result: p53 reactivation)
COc1ccc(NC(=O)COCc2cc(-c3cccs3)on2)cc1	none (no result: p53 reactivation, Nrf2 inh)
Cc1ccc(Oc2cc(NC(=O)CCCn3nc([N+](=O)[O-])cc3C)cc([N+](=O)[O-])c2)cc1	Nrf2 inh inconclusive
CCn1nc(C)c(C(=O)Nc2cc(Oc3cc(C)cc(C)c3)cc([N+](=O)[O-])c2)c1C	A549 viability inconclusive, Nrf2 inh 21µM
Cc1ccc(C)c(Oc2cc(NC(=O)CCCn3nc(C)c([N+](=O)[O-])c3C)cc([N+](=O)[O-])c2)c1	A549 viability inconclusive, p53 reactivation inconclusive, Nrf2 inh 23µM
Cc1cccc(Oc2cc(NC(=O)c3ccccc3)cc([N+](=O)[O-])c2)c1	A549 viability inconclusive, Nrf2 inh 13µM
Cc1nn(CCCC(=O)Nc2cc(Oc3ccccc3)cc([N+](=O)[O-])c2)c(C)c1[N+](=O)[O-]	Nrf2 inh inconclusive, ClpP mod 25µM
O=C(CSc1nc(=O)n(Cc2ccco2)c2c1CCC2)Nc1ccccc1C(F)(F)F	none (no result: p53 reactivation, Nrf2 inh)
O=C(O)c1ccc2c(c1)C(=O)N([C@H](Cc1c[nH]c3ccccc13)C(=O)O)C2=O	none (no result: Nrf2 activator, p53 reactivation, miR-21 FLuc, ClpP mod)
CC1(C)CC(=O)C/C(=N/NC(=O)c2ccc(-c3ccccc3)cc2)C1	Nrf2 inh 16µM (no result: ClpP mod)
CC1(C)CC(=O)C/C(=N\NC(=O)Cc2ccccc2)C1	Nrf2 inh inconclusive
CCn1c(SCC(=O)N2CCC(C)CC2)nnc1-c1ccc(S(=O)(=O)N2CCN(C)CC2)cc1	ClpP mod 32µM
CC1CCN(C(=O)CSc2nnc(-c3ccc(S(=O)(=O)N4CCOCC4)cc3)n2C)CC1	none
S=c1[nH]nc(COc2ccccc2)n1/N=C/C=C/c1ccco1	Nrf2 activator 13µM (no result: ClpP mod)
S=c1[nH]nc(COc2ccccc2)n1/N=C/C=C/c1ccccc1	none
CN(C(=O)n1cnc2ccccc21)c1ccccc1	none
ClC(Br)=C(n1cnc2ccccc21)n1cnc2ccccc21	ClpP mod 25µM
